Ab-14 heavy chain CDR variants: yeast mating affinities

The measurements come from Engelhart et al. 2022 (doi:10.1038/s41597-022-01779-4) through the FLAb antibody collection.

Antigen: PDVDLGDISGINAS, a 14-residue peptide of the SARS-CoV-2 spike HR2 region.

Ab-14 is the parent antibody, in scFv form: VH, then a 15-residue (Gly4Ser)3 linker, then VL. The light chain is unchanged in all variants.
VH: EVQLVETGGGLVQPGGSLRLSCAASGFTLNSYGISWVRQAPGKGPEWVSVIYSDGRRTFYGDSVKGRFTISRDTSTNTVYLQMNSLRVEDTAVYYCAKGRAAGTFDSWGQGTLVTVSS
VL: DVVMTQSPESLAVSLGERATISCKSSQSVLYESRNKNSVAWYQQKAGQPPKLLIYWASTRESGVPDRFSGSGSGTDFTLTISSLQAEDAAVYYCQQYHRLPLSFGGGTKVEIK

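Library AAYL49 holds single substitutions and randomly drawn double and triple substitutions in the CDRs. Affinity was read by AlphaSeq, a pooled yeast mating assay with surface-displayed partners. The frequency of each diploid, read from paired DNA barcodes, reflects how well the two displayed proteins bind. Scores were corrected for input abundance and mapped to Kd with protein pairs of known affinity run in the same pool. The assay was run in three technical replicates.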

Positions count from residue 1 of the parent VH; Y32W puts W in place of Y. All variants listed here change I34 of the VH, counted from its first residue. Kd is apparent (estimated from mating counts) and averaged on the log scale over replicates with a signal. Smaller is tighter. Where no diploid with the target was found in any replicate, the entry reads "no signal": below detection, most likely a poor binder, though not proof of it.

* Y32W/I34E/A102R -> no signal (0 of 3 replicates)
* Y32L/I34D/S35H -> no signal (0 of 3 replicates)
* I34V -> no signal (0 of 3 replicates)
* Y32T/I34F/A101L -> no signal (0 of 3 replicates)
* T28D/I34E/G61P -> no signal (0 of 3 replicates)
* I34T -> 190 nM (3 of 3 replicates)
* I34S/K65Q/G103N -> 7.6 µM (2 of 3 replicates)
* N30A/I34F/R57F -> no signal (0 of 3 replicates)
* I34H/S53L/G55K -> 4.0 µM (2 of 3 replicates)
* F27P/I34Y/R57L -> 23 µM (2 of 3 replicates)
* I34G/S35G/R56P -> no signal (0 of 3 replicates)
* I34T/I51E/Y60A -> no signal (0 of 3 replicates)
* N30L/I34P/K65A -> no signal (0 of 3 replicates)
* I34D/D62I/A101F -> no signal (0 of 3 replicates)
* F27V/I34M/R56Y -> no signal (0 of 3 replicates)
* I34P/G99N/D106T -> 1.8 µM (1 of 3 replicates)
* T28N/I34L -> 37 nM (3 of 3 replicates)
* I34P/R100S/S107C -> 120 µM (1 of 3 replicates)
* I34Y/G99K/A101V -> 640 nM (1 of 3 replicates)
* I34F/V50F/Y60S -> 2.4 µM (1 of 3 replicates)
* I34V/S53C/S63N -> no signal (0 of 3 replicates)
* Y32R/I34D/I51Q -> no signal (0 of 3 replicates)
* I34M/F59K/R100C -> 5.7 µM (1 of 3 replicates)
* G33K/I34D/D54H -> no signal (0 of 3 replicates)
* I34L/D106V/S107Q -> no signal (0 of 3 replicates)
* G26L/I34V/G99L -> 12 µM (1 of 3 replicates)
* I34M/G55M/V64M -> 1.6 µM (1 of 3 replicates)
* I34E/S53M/R56L -> 290 µM (1 of 3 replicates)
* T28E/I34L -> 110 nM (3 of 3 replicates)
* I34R/S35K/G99R -> no signal (0 of 3 replicates)
* I34V/K65P/A102L -> no signal (0 of 3 replicates)
* G26I/I34C/G103V -> no signal (0 of 3 replicates)
* I34M/D54N/V64S -> 21 µM (2 of 3 replicates)
* T28C/I34R/I51M -> 66 µM (2 of 3 replicates)
* I34Q/Y60P/K65H -> 1.5 µM (1 of 3 replicates)
* N30D/I34V/S63K -> 1.9 nM (3 of 3 replicates)
* S31F/I34Q/G55N -> 90 nM (1 of 3 replicates)
* I34D/S53R/T104E -> no signal (0 of 3 replicates)
* G33W/I34M -> 52 µM (1 of 3 replicates)

The opening 3 entries, copied out:

changes,Kd,replicates with signal
Y32W/I34E/A102R,no signal,0/3
Y32L/I34D/S35H,no signal,0/3
I34V,no signal,0/3

In this assay the parent's reference entry averaged 4.4 nM; its copy inside this library read 13 µM (one replicate of three). Empty control strains, which show no peptide, gave a signal in 15% of pairings with library AAYL49; the median was 11 µM and 95% of these signals were weaker than 680 nM. No background was subtracted.